Results: PubChem BioAssay AID648 (SRMLSC, 2007)
This is a selection; strong and weak results do not stand in their true shares. Calls of active or inactive are those of the source.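 The calls were made as follows: active = viability at or below 30%; inactive = viability above 30%.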

Assay: inhibitors of HUVEC proliferation, primary screen, cell-based, 384-well (AID 648);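 also: 100% = median luminescence of DMSO-only cell control wells on each plate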
Settings: CellTiter-Glo luminescence, 72 h, hits give low values, screened at 10 µM (by protocol)

Compound | viability
O=C(COc1ccccc1)OC1CN2CCC1CC2 (configuration not stated) | inactive: 108%
COP1(=S)c2c(C)nn(CCC#N)c2N=C(c2ccc(F)cc2)N1C (configuration not stated) | inactive: 104%
CCC(C)N(CC(C)C)C(=S)SC(NC(C)=O)C(Cl)(Cl)Cl (configuration not stated) | inactive: 73.4%
O=C(OC1CN2CCC1CC2)C12CC3CC(CC(C3)C1)C2 (configuration not stated) | inactive: 83.6%
ClCCSc1nnc(-c2cccnc2)o1 | inactive: 91.5%
CCOP1(=S)c2c(C)nn(CCC#N)c2N=C(c2ccccc2F)N1C (configuration not stated) | inactive: 101%
CCOP1(=S)c2c(C)nn(CCC#N)c2N=C(c2ccc(F)cc2)N1C (configuration not stated) | inactive: 100%
Cc1cccc(OCC(=O)OC2CN3CCC2CC3)c1 (configuration not stated) | inactive: 106%
Clc1n[nH]nc1-c1nn[nH][15n]1 | inactive: 89.4%
O=P1(Nc2ccccn2)COc2ccccc2OC1 | inactive: 98.2%
CC1(CBr)Cn2c(nc3ccccc3c2=O)S1 (configuration not stated) | inactive: 90.8%
Cc1nn(-c2ccccc2)c2c1P(=O)(N1CCOCC1)N(C)C(c1ccccc1)=N2 (configuration not stated) | inactive: 91.3%
Cc1ccc(OCC(=O)OC2CN3CCC2CC3)cc1 (configuration not stated) | inactive: 90.3%
O=P1(Nc2ccc(Br)cn2)COc2ccccc2OC1 | inactive: 92.5%
O=P1(Nc2ncccn2)COc2ccccc2OC1 | inactive: 95.7%
O=C(OC1CN2CCC1CC2)c1cccc(Cl)c1 (configuration not stated) | inactive: 90.2%
c1nnnn1CCn1cnnn1 | inactive: 108%
O=P(Nc1nccs1)(c1ccccc1)c1ccccc1 | inactive: 91.7%
O=P1(Nc2nc3ccc(Cl)cc3s2)COc2ccccc2O1 (configuration not stated) | inactive: 93.5%
COC(=O)c1cc2c(s1)N=C(c1ccccc1)N(C)P2(=O)N1CCOCC1 (configuration not stated) | inactive: 98.7%
CCOP(=O)(Nc1ccccc1)OCC | inactive: 88.8%
CN1CCCC(OC(=O)C(c2ccccc2)c2ccccc2)C1 (configuration not stated) | inactive: 80.4%
Oc1ccccc1CNc1ccccn1 | inactive: 92.7%
Cc1c2non([O-])c-2c(C)[n+](=O)[n+]1[O-] | inactive: 92.6%
CCc1nc2c(n1)c1c(non1O)c1c2no[n+]1[O-] | inactive: 62.9%
O=[N+]([O-])c1cccc2n[nH]nc12 | inactive: 108%
CC1CCN(C(=O)Oc2c(Cl)cc(Cl)c3cccnc23)CC1 | inactive: 102%
